Chains of the proteins cited; added tags and fusions are not shown.
UniProt O08914, whole entry: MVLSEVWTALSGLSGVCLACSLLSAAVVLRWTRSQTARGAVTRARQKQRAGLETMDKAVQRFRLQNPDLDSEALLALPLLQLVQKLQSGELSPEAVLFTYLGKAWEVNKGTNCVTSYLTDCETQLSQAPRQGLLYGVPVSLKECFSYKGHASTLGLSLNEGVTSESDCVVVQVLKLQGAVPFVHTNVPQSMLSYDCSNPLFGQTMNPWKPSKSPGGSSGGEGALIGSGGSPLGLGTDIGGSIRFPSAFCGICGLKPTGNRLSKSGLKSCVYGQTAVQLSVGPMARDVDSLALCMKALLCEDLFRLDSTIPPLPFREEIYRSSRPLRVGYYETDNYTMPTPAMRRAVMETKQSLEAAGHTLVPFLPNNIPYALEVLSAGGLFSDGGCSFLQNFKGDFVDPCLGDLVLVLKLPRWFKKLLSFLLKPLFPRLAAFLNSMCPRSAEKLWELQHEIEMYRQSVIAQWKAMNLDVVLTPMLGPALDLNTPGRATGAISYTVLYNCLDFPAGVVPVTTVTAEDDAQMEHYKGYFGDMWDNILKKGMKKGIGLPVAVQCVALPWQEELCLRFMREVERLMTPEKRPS

According to PMC4042408 (ACS chemical biology, 2013):

Target: FAAH (Mus musculus, UniProt O08914)
Assay: Gel-based competitive ABPP
Assay type: biochemical

CCOP(=O)(OCC)Oc1nc(Cl)c(Cl)cc1Cl [CPO, chlorpyrifos-oxon]
IC50 compared to that of ACHE: comparable
